Laboratory results taken from ChEMBL document CHEMBL4673183, “Hit-to-lead optimization of a benzene sulfonamide series for potential antileishmanial agents” (RSC Med Chem, 2020).

Assay: Selectivity ratio of IC50 for Antileishmanial activity against amastigote stage of Leishmania donovani MHOM/ET/67/L82 infected in mouse peritoneal macrophages to IC50 for Antileishmanial activity against amastigote stage of Leishmania infantum MHOM/MA(BE)/67/ITMAP263 infected in mouse peritoneal macrophages
Format: functional

Question: For `CCCCCOc1cc(C)c(C)cc1S(=O)(=O)NC1CCCC1`, which “Ratio IC50” value is on record?
Answer: The value was over 100.

Question: Which “Ratio IC50” value does the source give for `CCCCCOc1cc(C)c(Cl)cc1S(=O)(=O)NCc1cccs1` here?
Answer: Its value is over 100.

Question: With `COc1cc(S(=O)(=O)N(Cc2ccccc2)Cc2ccccc2)c(OC)cc1C` as the compound, how does the “Ratio IC50” value read?
Answer: Its value is over 100.
